Results reported in patent US12227512B2, “Benzimidazoles and methods of using same” (priority 2019, dated 2025).

Assays:
[1] = tested on: human initiator tRNA (iMet-tRNA anticodon domain); experiment: Binding to initiator tRNA (NMR, preliminary biochemical assays)
[2] = tested on: Gli-1 and c-Myc; experiment: Western blot of Gli-1 and c-Myc in SUFU-KO-Light cells; assay type: cell-based

CN(C)CCCn1c(N)nc2ccc3c(c21)CC(CN(C)C)O3 (centres unmarked)
Kd [1]: 1000 nM

CN(C)CCCn1c(N)nc2ccc3c(c21)CC(CN(C)C)O3 (racemic)
C-Myc mRNA levels [2]: increase slightly
